Here are results for three molecules from ChEMBL document CHEMBL1921782.

Sequences of proteins named here, by UniProt entry; tags and fusion partners are left off.
UniProt P35367, whole entry: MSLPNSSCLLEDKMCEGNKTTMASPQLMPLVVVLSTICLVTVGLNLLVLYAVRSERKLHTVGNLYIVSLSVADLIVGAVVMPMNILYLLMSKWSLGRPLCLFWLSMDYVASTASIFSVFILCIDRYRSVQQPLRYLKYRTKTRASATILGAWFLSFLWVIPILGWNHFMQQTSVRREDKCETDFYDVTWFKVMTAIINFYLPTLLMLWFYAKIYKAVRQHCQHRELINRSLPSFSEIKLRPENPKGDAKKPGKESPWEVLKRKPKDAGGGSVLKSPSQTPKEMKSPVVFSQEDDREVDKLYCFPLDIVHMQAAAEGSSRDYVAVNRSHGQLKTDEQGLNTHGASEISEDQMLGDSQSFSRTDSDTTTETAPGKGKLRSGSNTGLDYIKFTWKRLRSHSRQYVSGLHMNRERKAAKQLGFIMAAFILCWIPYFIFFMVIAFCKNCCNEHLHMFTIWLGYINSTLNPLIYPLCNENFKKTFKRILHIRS

The experiment concerns the target Histamine H1 receptor (Homo sapiens, UniProt P35367). Nature of the experiment: biochemical.

pKi: −log10 of the molar value.

One may read the pKi as the Ki on a negative log10 scale, so that one unit is a factor of ten. High values mean a small Ki, low ones a large Ki. In turn, `Cc1cccc2c(CCN)cn(Cc3ccccc3)c12` had a pKi of 6.27. As for `NCCSc1nc(C2CCCCC2)n(-c2ccccc2)n1`, the pKi was 5.09. Against the preceding molecule, the pKi is 1.18 log units lower. For `OCCN1CCN(c2ncnc3c2oc2ccccc23)CC1` the value was 5.27.
